Earlier results as cited in patent publication US6420552B1, “Syntheses of 4-alkyl chromogenic glycosides and 7-alkyl chromogenic glycosides of N-acetylneuraminic acids” (priority 1999, dated 2002).

By UniProt entry, the sequences of proteins in these tests, tags left out. Where a name states a change or a piece, a line headed by the entry shows the natural chain unless it says otherwise.
UniProt P08492: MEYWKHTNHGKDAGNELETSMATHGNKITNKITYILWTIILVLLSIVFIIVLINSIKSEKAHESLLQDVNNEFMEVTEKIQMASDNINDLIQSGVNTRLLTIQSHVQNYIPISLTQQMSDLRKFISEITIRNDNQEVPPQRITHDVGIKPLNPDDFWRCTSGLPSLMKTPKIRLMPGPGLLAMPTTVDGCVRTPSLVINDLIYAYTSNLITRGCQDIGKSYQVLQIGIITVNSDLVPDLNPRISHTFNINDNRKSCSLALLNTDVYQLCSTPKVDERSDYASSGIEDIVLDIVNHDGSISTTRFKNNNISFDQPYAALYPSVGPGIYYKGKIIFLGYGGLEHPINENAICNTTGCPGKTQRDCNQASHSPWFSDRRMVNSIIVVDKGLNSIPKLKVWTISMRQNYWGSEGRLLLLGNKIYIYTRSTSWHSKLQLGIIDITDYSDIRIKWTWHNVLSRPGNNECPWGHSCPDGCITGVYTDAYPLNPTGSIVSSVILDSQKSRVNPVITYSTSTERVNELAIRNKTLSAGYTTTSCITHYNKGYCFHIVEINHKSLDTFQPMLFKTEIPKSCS
UniProt P11235: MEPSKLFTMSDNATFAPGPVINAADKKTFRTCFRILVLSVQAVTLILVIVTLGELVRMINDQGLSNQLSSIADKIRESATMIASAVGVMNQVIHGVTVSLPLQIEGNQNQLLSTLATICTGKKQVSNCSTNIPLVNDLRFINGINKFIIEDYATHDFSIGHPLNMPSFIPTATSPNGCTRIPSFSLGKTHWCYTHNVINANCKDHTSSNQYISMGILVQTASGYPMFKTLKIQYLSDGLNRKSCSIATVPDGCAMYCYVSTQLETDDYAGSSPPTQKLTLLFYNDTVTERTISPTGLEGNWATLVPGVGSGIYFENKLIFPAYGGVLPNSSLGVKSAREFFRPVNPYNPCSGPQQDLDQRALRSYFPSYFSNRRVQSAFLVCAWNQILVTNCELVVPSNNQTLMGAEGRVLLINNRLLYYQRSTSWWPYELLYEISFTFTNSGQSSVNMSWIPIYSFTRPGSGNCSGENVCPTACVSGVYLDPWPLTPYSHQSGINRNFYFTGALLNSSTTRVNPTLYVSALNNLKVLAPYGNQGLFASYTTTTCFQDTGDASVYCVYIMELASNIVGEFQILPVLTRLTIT

Experiments:
[1] = molecular target: enzyme of parainfluenza type 3 (Human parainfluenza 3 virus, UniProt P08492); details: substrate activity, result in words
mumps neuraminidase = mumps neuraminidase (Mumps virus genotype B, UniProt P11235); details: substrate activity, result in words

Question: Which “hydrolysis / colour development by the enzyme of parainfluenza type 3” value [1] does the source give for “5-bromo-3-indolyl 4-O-methyl Neu5Ac ketoside” here?
Answer: not significantly

Question: What about the “hydrolysis / colour development by neuraminidase activity of mumps” value (mumps neuraminidase) of the same substance?
Answer: acted upon
